# Molecular target: T1, NPY receptors on SK-N-BE2 cells (Homo sapiens, UniProt P49146)
# Chains of the proteins cited; added tags and fusions are not shown.
# UniProt P49146, whole entry: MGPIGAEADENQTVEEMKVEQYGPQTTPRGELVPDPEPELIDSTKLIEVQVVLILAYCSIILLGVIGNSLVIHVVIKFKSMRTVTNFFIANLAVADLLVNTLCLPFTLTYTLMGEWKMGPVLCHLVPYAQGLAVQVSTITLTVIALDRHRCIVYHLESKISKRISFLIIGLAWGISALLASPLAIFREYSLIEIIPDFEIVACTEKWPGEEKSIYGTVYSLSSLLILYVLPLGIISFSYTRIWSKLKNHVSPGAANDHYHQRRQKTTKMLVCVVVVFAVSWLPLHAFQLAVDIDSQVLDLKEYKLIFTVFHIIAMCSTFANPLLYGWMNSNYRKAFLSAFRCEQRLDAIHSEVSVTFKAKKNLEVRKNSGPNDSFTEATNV
# T1 construct: endogenous in cells; host or cells: SK-N-BE2 human neuroblastoma cells
# Assay: Saturation binding experiment with [125I]PYY as radioligand on SK-N-BE2 cells
# Settings: saturation binding data
# Procedure: Saturation binding experiments are performed for both the SK-N-MC and SK-N-BE2 cell lines using [^125 I]PYY as the radioligand. The Scatchard plot of the [^125 I]PYY saturation binding data obtained for the SK-N-BE2 cells is nearly linear.
substance,measurement,value
"[^125 I]PYY: radioligand, iodinated peptide YY from NEN",slope of the Hill plot,1.03
